Screening results from PubChem BioAssay.
Rows were chosen to be rich in hits. Some 4.2% of all compounds tested hit in one or more screens of this group.
NALP1 yeast inh – NALP1 inflammasome inhibitors in reconstituted yeast, colorimetric, S. cerevisiae, triplicate retest; S. cerevisiae NALP1/ASC/caspase-1 growth, X-gal OD620, 72 h; hit rate 0.61% among 280,000; inhibition, % at 10 µM; AID 2071, 2009; in the data active = inhibition mostly above about 24%, no sharp cut-off; inactive = mostly below about 32%
Yeast UUG start – yeast start codon fidelity modulation; activity score, % at 18.7 µM; actives 0.13% (n = 350,000); S. cerevisiae UUG-firefly luciferase reporter, luminescence/redox ratio; AID 602363;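 active means replicate mean at a twofold rise or more, about +100% in these data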;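 further: firefly luciferase made from a UUG start codon reports start codon fidelity; reporter light over untreated wells divided by growth signal over untreated wells; some hits fall short of that in this replicate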
ALR inh – human ALR oxidase inhibition via reduced H2O2; P55789; purified ALR, DTT oxidation, H2O2 HRP-luminol luminescence; inhibition, % (concentration not given with the values); 290,000 tested, 3.8% active;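 active = mean and each replicate at 75% or more; inconclusive = only one of the two met; inactive = neither met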;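 note: stock transfer was 7.5 nL into about 7.5 µL; 0% = neutral wells and 100% = wells with inactivated enzyme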
MC4R antagonist – MC4R antagonists of cAMP signaling, primary screen, cell-based, TR-FRET, antagonist arm of biased-ligand search. Melanocortin receptor 4 (Homo sapiens), P32245. MC4R-expressing cells, MTII-stimulated cAMP, LANCE TR-FRET. inhibition, % at 6.5 µM. hit rate 0.48% among 360,000. AID 540295, 2011;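 active = inhibition above its plate's cutoff, the mean of tested wells on that plate plus 3 SD, cut at about 29% in these data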
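Test system: U2OS cells stably expressing human melanocortin 4 receptor (MC4R); also added: Melanotan II challenge; compound: 6.5 µM single dose; timing: 30-min compound preincubation, 1-h Melanotan II challenge, 1-h detection, room temperature; signal: Eu-cAMP/anti-cAMP TR-FRET, emission 671 nm; repeats: one well per compound, no replicates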
HDAC3 inhib – HDAC3 deacetylase inhibitors, primary screen, biochemical, fluorescence, cell-free homogeneous; recombinant HDAC3, fluorogenic peptide/trypsin coupled; inhibition, % at 8.3 µM; hit rate 0.15% among 320,000; AID 2718, 2010; in the data active = inhibition above about 26%, passing the limit was not always enough; inconclusive = no clear call, values can overlap the other calls
MC4R barr agon – MC4R agonists recruiting beta-arrestin, primary screen, cell-based, luminescence, agonist arm of biased-ligand search; Melanocortin receptor 4 (Homo sapiens), P32245; U2OS MC4R beta-arrestin complementation; percent of melanotan II response, DMSO zero; activation, % at 8.9 µM; hit rate 0.98% among 360,000; AID 540308, 2011;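 active = activation above a per-plate cutoff, the mean activation of sample wells on that plate plus 3 SD, cut at about 8% in these data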
MC4R barr ag – MC4R beta-arrestin agonists, retest, confirmation, cell-based, luminescence, U2OS; activation, % at 8.9 µM; AID 602192, 2012; shares compounds with MC4R barr agon; U2OS MC4R beta-arrestin recruitment; scaled DMSO 0%, Melanotan II 100%; hit rate 31% among 2,400;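 active = mean activation across replicates above the hit cutoff set in the earlier primary screen, cut at about 8% in these data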
MOR-DOR barr ag – agonists of MOR-DOR heterodimerization, counter-screen for MC4R biased agonist project, cell-based, luminescence. U2OS PathHunter beta-arrestin, beta-gal luminescence; percent of deltorphin B response, DMSO zero. hit rate 5.8% among 2,400. shares compounds with MC4R barr agon. activation, % at 9.2 µM;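 active = mean activation across replicates exceeds the hit threshold derived in the earlier primary screen, cut at about 18% in these data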
Hits are given with their value; 0 = inactive; ? = inconclusive; - = no result; ! = a repeat was not active.

Protein sequences, listed by entry. Tags and fused reporters are not part of them.
Melanocortin receptor 4 (Homo sapiens), P32245, UniProt P32245, whole entry, looked up: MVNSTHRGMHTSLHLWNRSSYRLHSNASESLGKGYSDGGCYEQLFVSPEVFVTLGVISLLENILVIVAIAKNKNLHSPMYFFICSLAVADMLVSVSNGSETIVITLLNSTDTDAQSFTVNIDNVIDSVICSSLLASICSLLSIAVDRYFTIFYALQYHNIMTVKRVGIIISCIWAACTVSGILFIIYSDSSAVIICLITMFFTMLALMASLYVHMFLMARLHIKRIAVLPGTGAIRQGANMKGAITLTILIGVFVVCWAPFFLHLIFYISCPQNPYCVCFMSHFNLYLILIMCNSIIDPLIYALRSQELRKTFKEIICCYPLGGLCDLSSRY

SMILES	NALP1 yeast inh	Yeast UUG start	ALR inh	MC4R antagonist	HDAC3 inhib	MC4R barr agon	MC4R barr ag	MOR-DOR barr ag
Cc1ccc(C(C)C)c(OCc2nn(CC(=O)c3ccc(OC(F)F)cc3)c3[n+]2CCCCC3)c1	0	0	0	0	0	19.6	14.3	25.1
CN1CCN(C2Cc3ccccc3Sc3ccc(Cl)cc32)CC1 (stereo not drawn)	-	0	0	0	0	0	-	-
CSc1ccc2c(c1)C(N1CCN(C)CC1)Cc1ccccc1S2 (stereo not drawn)	0	0	0	0	?	11.3!	0	0
Cc1cc(O)c(NC(=S)NC(=O)c2ccc(-c3ccc(Cl)cc3)o2)cc1C	0	-	0	0	0	0	-	-
Cc1ccc(NC(=S)NC(=O)c2ccc(-c3ccc(Cl)cc3)o2)c(O)c1	0	-	-	0	0	16.4	20.9	0
Cc1cccc(NC(=S)N/N=C/c2ccc(Cl)c([N+](=O)[O-])c2)c1	0	0	0	0	?	22.1	0	0
COc1ccc(-c2csc3nc(C)nc(N4CCCCC4)c23)cc1OC	0	-	0	0	0	9.6	0	0
C[C@H](CO)N1C[C@H](C)[C@H](CN(C)C(=O)Nc2cccc3ccccc23)Oc2c(NS(=O)(=O)c3cccs3)cccc2C1=O	-	0	-	-	-	-	-	-
COc1cccc(-c2noc(-c3ccc4c(c3)OCO4)n2)c1	0	-	0	0	0	11.1	0	0
O=C(CCCOc1ccc(Cl)cc1Cl)N/N=C/c1ccc(Cl)cc1	0	0	-	0	0	9.8	0	0
CCOc1ccc(NC(=NCc2ccc3c(c2)OCO3)SC2CC(=O)N(c3ccccc3)C2=O)cc1 (stereo not drawn)	0	0	-	0	0	18.1	0	0
CCOc1ccc(NC(=NCc2ccc3c(c2)OCO3)SC2CC(=O)N(c3ccc(OCC)cc3)C2=O)cc1 (stereo not drawn)	0	0	0	0	0	0	-	-
C[C@@H]1CCCCO[C@H](CN(C)S(C)(=O)=O)[C@@H](C)CN([C@@H](C)CO)C(=O)c2cc(NS(=O)(=O)c3ccccc3)ccc2O1	-	0	-	-	-	-	-	-
CC(C)CC#Cc1ccc2c(c1)O[C@@H](CN(C)C(=O)Cc1ccccn1)[C@@H](C)CN([C@@H](C)CO)S2(=O)=O	-	0	-	-	-	-	-	-
CCN1/C(=C/c2ccc3cc(C)cc(C)c3[n+]2CC)Sc2cc(C)ccc21	0	0	-	0	-	45.0	87.1	0
Cc1ccc2c(c1)S/C(=C\c1cccc[n+]1C)N2CCO	0	0	0	0	0	0	-	-
COc1cc2c(cc1OC)C(c1ccc(-c3ccc(Cl)cc3Cl)o1)=NCC2	0	0	0	0	0	11.8	0	0
O=C(C[C@H]1CC[C@H]2[C@@H](COC[C@H](O)CN2Cc2ccccc2F)O1)N[C@@H]1CCN(Cc2ccccc2)C1	-	0	-	-	-	-	-	-
COc1ccccc1Nc1nnc(SCC(=O)Nc2cc(C)on2)s1	0	0	0	0	0	29.7	0	0
CCOc1cc(NC(=O)c2cccs2)c(OCC)cc1NC(=O)c1ccco1	0	-	0	0	0	11.8	16.6	0
O=C(C[C@@H]1C=C[C@@H](NC(=O)C2CCOCC2)[C@H](CO)O1)NCc1ccncc1	-	0	-	-	-	-	-	-
CO[C@@H]1CN(C)C(=O)c2cc(NC(=O)Nc3ccccc3Cl)ccc2OC[C@@H](C)N(C)C[C@H]1C	-	0	-	-	-	-	-	-
NC(=O)CC(NC(=O)c1ccc(Br)cc1)c1ccc(NCCc2ccc(F)cc2)c([N+](=O)[O-])c1 (stereo not drawn)	-	0	0	0	0	12.6	0	0
CO[C@H]1CN(C)C(=O)c2cc(NS(=O)(=O)c3ccccc3C)ccc2OC[C@H](C)NC[C@H]1C	-	0	-	-	-	-	-	-
COC(=O)c1sc(NC(=O)CSc2nc3cccnc3n2C)nc1C	0	0	0	0	0	0	-	-
SMILES	NALP1 yeast inh	Yeast UUG start	ALR inh	MC4R antagonist	HDAC3 inhib	MC4R barr agon	MC4R barr ag	MOR-DOR barr ag
COc1ccc2nc(NC(=O)CSc3nc4cccnc4n3C)sc2c1	0	0	0	0	0	16.9	36.6	0
Cc1ccc(-c2nc3ccccc3s2)cc1NC(=S)NC(=O)c1ccccc1	0	0	0	0	0	0	-	-
Cc1ccc(-c2nc3ccccc3s2)cc1NC(=O)c1cc(-n2cnnc2)ccc1Cl	0	0	0	0	0	11.1	0	0
COCC(=O)Nc1ccc2c(c1)C(=O)N(C)[C@@H]1CC[C@H](CC(=O)NC3CCCC3)O[C@@H]1CO2	-	0	-	-	-	-	-	-
O=C(NCC1OCCc2ccccc21)c1cc(COc2ccc(F)cc2Cl)on1 (stereo not drawn)	0	-	0	0	0	14.5	0	0
COc1ccc(-c2ccc(-c3noc(-c4ccccc4C)n3)c(OC)n2)cc1	0	0	0	0	0	0	-	-
COc1ccc(-c2ccc(-c3noc(-c4cccs4)n3)c(OC)n2)cc1	0	-	0	0	0	17.0	0	0
COc1ccc(-c2ccc(-c3noc(-c4ccccc4OC)n3)c(OC)n2)cc1	0	-	0	0	0	10.4	0	0
COc1ccc(-c2ccc(-c3noc(-c4cccc(OC)c4)n3)c(OC)n2)cc1	0	0	0	0	0	0	-	-
O=C(C[C@@H]1CC[C@@H]2[C@H](COC[C@@H](O)CN2Cc2cccc(F)c2)O1)NCC1CCCCC1	-	0	-	-	-	-	-	-
C[C@@H](NC(=O)C[C@H]1CC[C@H](NC(=O)C2CCC2)[C@H](CO)O1)c1ccccc1	-	0	-	-	-	-	-	-
COc1ccc(CNCCC(c2ccc(OC(C)C)cc2)c2ccccc2OC)cc1OC (stereo not drawn)	0	0	0	0	0	0	-	-
COc1ccc(C(CCNCc2ccc(OC(C)C)cc2)C(C)C)cc1 (stereo not drawn)	0	0	0	0	0	14.7	0	0
COc1ccc(CNCCC(c2ccc(OC(C)C)cc2)c2ccccc2OC)cc1 (stereo not drawn)	0	-	0	0	0	12.1	11.1	24.8
COc1ccccc1C(CCNCc1ccc(N(C)C)cc1)c1ccc(OC(C)C)cc1 (stereo not drawn)	0	0	0	0	0	12.9	0	28.7
COc1ccc(C(CCNCc2ccc(N(C)C)cc2)C(C)C)cc1 (stereo not drawn)	0	-	0	0	0	0	-	-
O=C(c1ccccn1)N1C[C@H]2[C@@H](c3ccccc31)[C@H](CO)N2C(=O)C1CC1	-	0	-	-	-	-	-	-
